S100A4 MyoIIA = inhibitors of S100A4-myosin IIA peptide binding, primary screen, biochemical, fluorescence polarization, TAMRA-MyoIIA peptide; Protein S100-A4 (Homo sapiens), P26447; inhibition, % at 10.7 µM; 360,000 compounds, 0.14% hits; AID 652163, 2013;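 active = mean inhibition of at least 70% across replicates, with every replicate also reaching that level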
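Test system: S100A4 monomer protein. Medium: HEPES buffer with Ca2+, pH 7.2. Reagent: fluorescent myosin IIA peptide, 5 nM. Compound dosing: single-point compound testing. Timing: 5 min between mix addition and reading. Benchmarks: DMSO neutral and TFP positive wells.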
PDI inh = inhibitors of human PDI, primary screen, biochemical, turbidity, single point, plate reader. Protein disulfide-isomerase (Homo sapiens), P07237. PDI insulin aggregation turbidity, A650, 90 min. inhibition, % at 10 µM. 350,000 compounds, 0.052% hits;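 active = mean inhibition across replicates of 30% or more, whatever share of single replicates reach that level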
UUG fidelity = modulators of start codon recognition fidelity in yeast. S. cerevisiae UUG-firefly luciferase reporter, luminescence/redox ratio. activity score, % at 18.7 µM. 0.13% of 350,000 active. AID 602363;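 active = replicate mean at a twofold rise or more, about +100% in these data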;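 also: firefly luciferase made from a UUG start codon reports start codon fidelity; reporter light over untreated wells divided by growth signal over untreated wells; some hits fall short of that in this replicate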
ERp5 block = inhibitors of ERp5-driven insulin aggregation, primary screen, biochemical, turbidity, absorbance 650 nm, single point; Protein disulfide-isomerase A6 (Homo sapiens), Q15084; 90 min; inhibition, % at 9.99 µM; 350,000 compounds, 0.05% hits; AID 651711, 2012;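 active = mean replicate inhibition above about 25%, with every replicate also reaching it, limit read from the data, passing the limit was not always enough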
SIRT5 inh = SIRT5 desuccinylase inhibitors, primary screen, biochemical, fluorescence imaging, single point, set 5; NAD-dependent protein deacylase sirtuin-5, mitochondrial (Homo sapiens), Q9NXA8; Purified SirT5, succinyl-peptide AMC, trypsin-coupled fluorescence; inhibition, % at 15 µM; 330,000 compounds, 1.1% hits; in the data active = inhibition above about 15%
FGF22 binding-1 = binders of human FGF22 protein, primary screen, FGF22 synaptogenesis inhibitor project, biophysical, thermal shift, single point | 340,000 compounds, 1.5% hits | activity (Tm shift, normalised), % at 9.99 µM | recombinant FGF22 thermal shift, SYPRO orange fluorescence; percent of sucrose octasulfate shift, DMSO zero | Fibroblast growth factor 22 (Homo sapiens), Q9HCT0 | AID 651658, 2012;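 active = mean Tm shift, scaled 0 neutral to 100 positive control, at about 1.3% or above, every replicate too, limit read from the data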
FGF22 binding-2 = binders of human FGF22 protein, dose response, FGF22 synaptogenesis inhibitor project, biophysical, thermal shift, cherry-pick retest. recombinant FGF22 thermal shift, SYPRO orange fluorescence. shares compounds with FGF22 binding-1. 1,000 compounds, 2% hits. thermal shift activity, °C (ΔTm) at 38 µM;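 active = fitted rise in melting shift crosses a set limit at or below the top valid dose tested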
FGF22 TSA DP = binders of human FGF22 protein, dose response, FGF22 synaptogenesis inhibitor project, biophysical, thermal shift, dry powder | shares compounds with FGF22 binding-1 | Thermal shift assay, SYPRO orange, melting temperature shift | 50 tested, under 10 active | Tm shift (activity), % at 38 µM;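 active = compounds whose fitted dose curve of melting temperature shift rises past a set threshold within the tested doses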
SYPRO no-protein = compound-only thermal shift signal without protein, dose response, artefact control for FGF22 binder project, biochemical, cherry-picked samples, RT-PCR instrument; shares compounds with FGF22 binding-1; compound-only SYPRO orange thermal shift counter-screen, no protein; AC50, µM (titrated, usually from 38 µM); 1,000 compounds, 2% hits; AID 743019, 2013;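 active = rising signal whose fitted curve reaches the 0.54 level within the top valid dose, showing a melting point, actives reach about 13 µM in these data; inactive = the rest, including activity in the opposite direction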; note: value is where the raw curve crosses a fixed level and not half-maximal
* hit, by the source's call; i = inactive; · = not tested or not shown; [ ] = remark or other dose. An excerpt weighted towards active compounds, which were near 2.2% of everything screened.

Sequences of proteins named here, by UniProt entry; tags and fusion partners are left off.
Protein disulfide-isomerase A6 (Homo sapiens), Q15084, UniProt Q15084, whole entry, looked up: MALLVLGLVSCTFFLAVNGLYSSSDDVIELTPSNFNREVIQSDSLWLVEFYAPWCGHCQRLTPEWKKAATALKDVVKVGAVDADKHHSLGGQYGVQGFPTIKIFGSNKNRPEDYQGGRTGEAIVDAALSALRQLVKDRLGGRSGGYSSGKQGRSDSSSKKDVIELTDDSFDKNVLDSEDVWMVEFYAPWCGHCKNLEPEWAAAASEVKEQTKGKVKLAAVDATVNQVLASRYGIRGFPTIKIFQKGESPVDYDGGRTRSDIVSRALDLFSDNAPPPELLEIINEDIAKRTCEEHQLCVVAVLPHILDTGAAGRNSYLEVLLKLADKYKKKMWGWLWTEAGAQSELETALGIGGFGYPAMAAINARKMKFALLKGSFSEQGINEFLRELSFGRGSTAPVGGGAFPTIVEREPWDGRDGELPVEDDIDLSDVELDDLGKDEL

SMILES | S100A4 MyoIIA | PDI inh | UUG fidelity | ERp5 block | SIRT5 inh | FGF22 binding-1 | FGF22 binding-2 | SYPRO no-protein | others
CC(=O)Nc1ccc2nc(NC(=O)COc3ccc(C)cc3)sc2c1 | -5 | -1 | · | 7 | -3 | 1.5* | -0.001 | 12µM*
Cc1ccc2nc(-c3ccc(NC(=O)COCC(=O)O)cc3)sc2c1 | 2 | -3 | -11 | 0 | -11 | 23* | 0.22 | i
COc1ccc2c3c(n(C)c2c1)[C@H](CO)N(S(=O)(=O)c1cn(C)cn1)CC31CCN(C)CC1 | -7 | · | · | 2 | -3 | 0 | · | ·
Cc1noc(C)c1NC(=O)N(C)C[C@H]1OCCCC[C@H](C)Oc2ccc(NC(=O)Nc3cccc4ccccc34)cc2C(=O)N([C@H](C)CO)C[C@@H]1C | · | · | 3 | · | · | 1 | · | ·
Cc1[nH]c(=O)[nH]c(=O)c1S(=O)(=O)Nc1cccc([N+](=O)[O-])c1C | -1 | 6 | -12 | 0 | 0 | 4.6* | -0.021 | i
Cc1ccc(NC(=O)c2cccc(OCc3c(C)noc3C)c2)c(C)c1 | · | 0 | -3 | · | · | · | · | ·
Cc1ccc(NC(=O)c2ccc(OCc3c(C)noc3C)cc2)c(C)c1 | 2 | -4 | -13 | 1 | -6 | 1.6* | · | i
O=C(O)c1ccc(Cl)c(S(=O)(=O)Nc2ccc(S(=O)(=O)N3CCCC3)cc2)c1 | 3 | -7 | 7 | · | 5 | 1.4* | -0.13 | i
CC(=O)c1ccc(S(=O)(=O)Nc2ccc(Cl)c(S(=O)(=O)N3CCCC3)c2)cc1 | -4 | 3 | 4 | 3 | 2 | 0 | · | ·
COc1ccc(C(=O)Nc2nc(CC(=O)NCCc3cccc(OC)c3)cs2)cc1 | -12 | -4 | · | 2 | 5 | 0 | · | ·
COc1ccc(C(=O)Nc2nc(CC(=O)NCCc3ccccc3)cs2)cc1 | -1 | -4 | · | -3 | -11 | 2.2* | -0.006 | i
COc1ccc(S(=O)(=O)N(C)C[C@H]2OCc3ccccc3-c3ccccc3C(=O)N([C@H](C)CO)C[C@@H]2C)cc1 | -92 | · | 9 | 4 | 0 | 0 | · | ·
CO[C@H]1CN(C)C(=O)c2cc(NC(=O)Nc3c(C)noc3C)ccc2OC[C@H](C)N(C)C[C@@H]1C | -2 | · | · | -5 | -4 | 0 | · | ·
N#CC(C#N)=C1NC(N)=C(C#N)C(c2ccccc2)=C1C#N | 0 | 3 | · | 7 | 4 | 2.1* | 0.14 | i
COc1ccc(-c2ccc([C@H]3[C@H](CO)N4CCCCN(C(=O)c5ccc6c(c5)OCO6)C[C@@H]34)cc2)cc1 | -5 | · | 0 | 0 | -1 | 1.4* | 0.037[42 µM] | i
COc1cc(C(=O)N/N=C/c2ccc3c(c2)c2ccccc2n3C)ccc1O | 8 | -90 | -8 | 1 | -2 | 0 | · | ·
COc1cc(/C=N/NC(=O)CCn2c3ccccc3c3ccccc32)ccc1O | -1 | 2 | -20 | 3 | -3 | 2.1* | 0.038 | 13µM*
COc1cc(/C=N/NC(=O)c2cc3ccccc3[nH]2)ccc1O | -6 | -1 | -6 | -3 | -1 | 2.7* | 0.24 | i | FGF22 TSA DP=0

Among those listed so far, 2 have a halogen.
SMILES | S100A4 MyoIIA | PDI inh | UUG fidelity | ERp5 block | SIRT5 inh | FGF22 binding-1 | FGF22 binding-2 | SYPRO no-protein | others
O=C(O)c1ccc(Cl)c(S(=O)(=O)Nc2ccc(S(=O)(=O)N3CCCC3)cc2)c1 | 3 | -7 | 7 | · | 5 | 1.4* | -0.13 | i
CC(=O)c1ccc(S(=O)(=O)Nc2ccc(Cl)c(S(=O)(=O)N3CCCC3)c2)cc1 | -4 | 3 | 4 | 3 | 2 | 0 | · | ·
